Test results taken from patent publication US7553861B2, “Dipeptidyl peptidase-IV inhibitors” (Alantos Pharmaceuticals Holding, Inc., priority 2005, dated 2009).

Chains of the proteins cited; added tags and fusions are not shown.
UniProt P27487, whole entry: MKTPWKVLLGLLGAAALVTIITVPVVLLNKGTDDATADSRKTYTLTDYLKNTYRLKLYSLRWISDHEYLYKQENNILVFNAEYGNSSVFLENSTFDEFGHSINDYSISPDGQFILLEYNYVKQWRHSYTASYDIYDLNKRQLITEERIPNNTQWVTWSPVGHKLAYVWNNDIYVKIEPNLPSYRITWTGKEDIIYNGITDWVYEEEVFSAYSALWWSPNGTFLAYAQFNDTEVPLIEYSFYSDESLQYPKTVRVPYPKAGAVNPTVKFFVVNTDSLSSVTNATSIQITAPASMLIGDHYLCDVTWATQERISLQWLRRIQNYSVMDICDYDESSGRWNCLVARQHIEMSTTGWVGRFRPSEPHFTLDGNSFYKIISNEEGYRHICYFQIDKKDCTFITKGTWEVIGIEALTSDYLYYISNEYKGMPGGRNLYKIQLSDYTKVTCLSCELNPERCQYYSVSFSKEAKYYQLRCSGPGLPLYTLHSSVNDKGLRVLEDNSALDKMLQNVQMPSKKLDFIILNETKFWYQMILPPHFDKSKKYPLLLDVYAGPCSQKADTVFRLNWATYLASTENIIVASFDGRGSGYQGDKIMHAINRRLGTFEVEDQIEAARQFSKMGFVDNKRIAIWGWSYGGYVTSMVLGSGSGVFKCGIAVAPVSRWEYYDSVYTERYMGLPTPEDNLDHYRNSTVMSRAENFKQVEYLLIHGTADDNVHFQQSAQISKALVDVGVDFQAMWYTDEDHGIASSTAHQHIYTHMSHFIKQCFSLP

Molecular target: DPP-IV (Homo sapiens, UniProt P27487)
Experiment: Assay for determining DP-IV inhibition (fluorometric, Gly-Pro-AMC substrate)
Conditions: read-out: Activity (K(i)), Inhibition of DPP-IV, K(i) calculated from IC(50) with IC(50)=K(i)(1+[S]/Km), pH 8.0

Q: For `C[C@@H](CC1(c2noc(=O)[nH]2)c2ccc(C(=O)N(C)C)cc2CCc2cc(C(=O)N(C)C)ccc21)NCC(=O)N1CCC[C@H]1C#N`, which Ki is on record?
A: The Ki was 6 to 50 nM.
